Reference: PMC4537131, “Bispyridinium Compounds Inhibit Both Muscle and Neuronal Nicotinic Acetylcholine Receptors in Human Cell Lines” (2015)

Sequences of proteins named here, by UniProt entry; tags and fusion partners are left off. Residues count along the entry.
UniProt P22303, 32-617 isoform 2 limits assumed: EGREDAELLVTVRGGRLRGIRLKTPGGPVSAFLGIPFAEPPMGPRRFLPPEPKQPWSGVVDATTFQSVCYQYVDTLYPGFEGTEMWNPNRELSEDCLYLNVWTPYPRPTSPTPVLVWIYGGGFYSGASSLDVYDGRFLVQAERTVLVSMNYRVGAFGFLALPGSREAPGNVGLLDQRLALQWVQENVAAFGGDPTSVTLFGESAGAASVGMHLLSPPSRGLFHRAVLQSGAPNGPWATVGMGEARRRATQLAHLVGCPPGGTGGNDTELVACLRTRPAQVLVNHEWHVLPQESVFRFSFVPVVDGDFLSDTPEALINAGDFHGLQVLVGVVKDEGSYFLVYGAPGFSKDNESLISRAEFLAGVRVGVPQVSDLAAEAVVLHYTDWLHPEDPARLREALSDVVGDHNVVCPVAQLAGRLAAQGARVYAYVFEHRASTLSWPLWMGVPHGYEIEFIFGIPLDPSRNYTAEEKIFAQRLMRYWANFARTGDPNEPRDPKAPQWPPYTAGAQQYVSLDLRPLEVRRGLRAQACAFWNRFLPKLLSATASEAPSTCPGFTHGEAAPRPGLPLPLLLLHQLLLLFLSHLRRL

Assays:
mice = conditions: dibromide salt variants of the MB compounds, tested form: diiodide; cited from earlier work
[1] = test system: human muscle nicotinic receptor (CN21 cells); assay: Nicotinic calcium response assay in CN21 cells (Fluo-4, FlexStation); conditions: tested form: diiodide; for Log IC50 (M), inhibition of nicotinic response: ACh 10 μM with atropine 20 μM, value is log10 of IC50, mean ± SEM; for Hill slope: ACh 10 μM, mean ± SEM
[2] = test system: neuronal nicotinic receptor (SH-SY5Y cells); assay: Nicotinic calcium response assay in SH-SY5Y cells (fura-2, Fluostar Optima); conditions: nicotine 50 μM, tested form: diiodide; for Hill slope: mean ± SEM; for Log IC50 (M), inhibition of nicotinic response: value is log10 of IC50, mean ± SEM
[3] = molecular target: human acetylcholinesterase (Homo sapiens, UniProt P22303); assay: Acetylcholinesterase inhibition assay (modified Ellman, erythrocyte ghosts); conditions: for Log AChE IC50 (M): value is log10 of IC50, tested form: diiodide
[4] = read-out: AChE IC50, 5 min incubation, pH 7.4, 37°C, tested form: diiodide

SMILES	LD50 iv mice (mice)	Log IC50 (M), inhibition of nicotinic response [1]	Hill slope [1]	Hill slope [2]	Log IC50 (M), inhibition of nicotinic response [2]	IC50 [3, 4]	Log AChE IC50 (M) [3]	Hill slope ([1]; listed as C10)	IC50 ([3]; read-out: AChE IC50, 5 min incubation, pH 7.4, 37°C, tested form: diiodide, listed as C10)	Hill slope ([1]; listed as C9)	IC50 ([3]; read-out: AChE IC50, 5 min incubation, pH 7.4, 37°C, tested form: diiodide, listed as C9)
c1cc[n+](CCCCCC[n+]2ccccc2)cc1	26 mg/kg	-3.50 ± 0.32 M	-0.50 ± 0.02	-1.88 ± 0.24	-4.54 ± 0.04 M	70 µM	-4.15 M				
c1cc[n+](CC[n+]2ccccc2)cc1	225 mg/kg	-2.06 ± 0.04 M	-0.75 ± 0.06			> 1000 µM	>-3 M				
c1cc[n+](CCC[n+]2ccccc2)cc1	180 mg/kg		-0.73 ± 0.06			> 1000 µM	>-3 M				
c1cc[n+](CCCCCCCCCC[n+]2ccccc2)cc1	15 mg/kg	-6.05 ± 0.17 M	-1.34 ± 0.14	-1.28 ± 0.09	-5.78 ± 0.03 M	0.5 µM	-6.30 M	-1.5	< 1 µM		
c1cc[n+](CCCCCCC[n+]2ccccc2)cc1		-4.81 ± 0.23 M	-0.72 ± 0.01	-1.80 ± 0.30	-4.43 ± 0.05 M	20 µM	-4.70 M				
c1cc[n+](CCCCCCCCC[n+]2ccccc2)cc1		-5.94 ± 0.11 M	-1.56 ± 0.11	-1.66 ± 0.20	-5.38 ± 0.04 M	0.2 µM	-6.70 M			-1.5	< 1 µM
c1cc[n+](CCCCC[n+]2ccccc2)cc1	32 mg/kg		-0.60 ± 0.13	-2.10 ± 0.40	-4.01 ± 0.04 M	700 µM	-3.15 M				
c1cc[n+](CCCCCCCC[n+]2ccccc2)cc1		-5.30 ± 0.20 M	-0.99 ± 0.07	-1.74 ± 0.22	-4.76 ± 0.03 M	1.4 µM	-5.85 M				
c1cc[n+](CCCC[n+]2ccccc2)cc1	55 mg/kg	-2.51 ± 0.15 M	-0.72 ± 0.05	-1.81 ± 0.26	-3.27 ± 0.04 M	> 1000 µM	>-3 M				

Like-named read-outs stand apart in the source and are kept apart here.
